Results published in patent US11351178B2, “Selective HDAC6 inhibitors” (ITALFARMACO S.P.A., priority 2017, dated 2022).

What was measured:
Format in all cases: cell-based
[1] = test system: H3 histone acetylation in 697 cell line; assay: In vitro H3 histone acetylation in 697 cell line; conditions: 16 h, read-out: Acetylation of H3 histone (fold increase of acetylated H3/total H3 towards control); for fold induction at 0.111 µM: conc 111 nM; for fold induction at 0.333 µM: conc 333 nM; for fold induction at 1 µM: conc 1000 nM
Method: (§1) The in vitro α-tubulin and H3 histone acetylation determination was evaluated on B 697 […] cell line.
(§2) The test molecules were diluted from 20 mM stock solution in DMSO with RPMI 10% FCS+0.01% DMSO medium at 20× concentration compared to the final concentration, added to the cells (15×10^6 cells in a total volume of 30 ml in RPMI medium 10% FCS+0.01% DMSO) to obtain the final concentrations of 1000, 333, 111 and 37 nM and incubated at 37° C., 5% CO2 for 16 hours.
The remaining cells (10×10^6) were treated by acid extraction of histones (Kazuhiro et al., PNAS (2002), 99 (13) 8921-8926). Cells were centrifuged 5 min at 1100 rpm at 4° C. and washed once in 0.9% NaCl. The resulting pellet was lysed with […] (10 mM Tris.HCl, pH 6.5/50 mM sodium bisulphite, 1% Triton X-100/10 mM MgCl2/8.6% saccharose containing the protease inhibitor mixture (Roche)) for 20 min at 4° C. The resulting nucleus pellet was repeatedly washed in buffer until supernatant clarification (centrifuged at 7,500×g, 5 minutes after each wash) and finally washed in nucleus buffer (10 mM Tris.HCl/13 mm EDTA, pH 7, 4) and resuspended in 250 μl of 0.2 M HCl/H2SO4. Histone proteins were extracted in an acidic environment by incubating overnight at 4° C. under gentle shaking. After centrifugation at 14,000 rpm at 4° C. for 10 minutes, 1250 μl of cold acetone was added to the supernatant and incubated overnight at −20° C., resulting in the precipitation of histone proteins. The pellet obtained after centrifugation for 10 minutes at 14000 rpm and 4° C. was washed with cold acetone, evaporated to dryness and resuspended in 50 μl distilled water. The protein content determination of both total and histone extracts was carried out by a colorimetric assay using a BCA Protein Assay Kit (Pierce cat: 23227).
H3 histone acetylation and total H3 amount were quantified by commercial ELISA assays PathScan acetylated histone H3 Sandwich Elisa kit, cat #7232C and PathScan total histone H3 Sandwich Elisa Kit, cat #7253C Cell Signaling) according to supplier reported method and by detecting absorbance at 450 nm wavelength using Multiskan Spectrum. ELISA tests were performed by analysing 0.250 μg and 0.500 μg of histone extract of each sample. The degree of acetylation was calculated by dividing H3 histone absorbance by histone total absorbance.
(§3) Test results of tubulin and H3 histone acetylation, expressed as fold increase of ratio of acetylated α-tubulin/total α-tubulin and H3Ac/H3Tot, respectively, of each sample relative to the control sample (untreated) are summarized in Tables 6 and 6′.

[2] = test system: α-tubulin acetylation in 697 cell line; assay: In vitro α-tubulin acetylation in 697 cell line; conditions: 16 hours, read-out: Tubulin acetylation (ratio of acetylated tubulin and total tubulin towards control); for fold induction at 0.037 µM: Conc 37 nM; for fold induction at 0.111 µM: Conc 111 nM; for fold induction at 0.333 µM: Conc 333 nM; for fold induction at 1 µM: Conc 1000 nM
Method: as §1, §2
At the end of the incubation period, 5×10^6 cells were taken from each sample, centrifuged for 5 minutes at 1100 rpm and washed in 0.9% NaCl at 4° C. The resulting pellet was lysed by treating at 4° C. for 30 minutes with 150 μl of Complete Lysis-M (Roche, cat-04719956051) containing protease inhibitors and phosphatase (Complete Easy Pack proteinase inhibitor cocktail tablets cat: 04693116001, Phostop easypack phosphatase inhibitor cocktails, cat: 01906837001—Roche), then centrifuged 10 minutes at 14,000 rpm (20817×g). 0.150 μg of supernatant (total protein extract) were diluted in 100 μl of 1×PBS and immobilized in Maxisorp F96 NUN-IMMUNO Plate (Nunc cat #5442404) at room temperature overnight. Plates were washed twice with Wash Buffer (PBS1X+0.005% tween 20) and saturated for 1 hour at room temperature with 300 μL of 1×PBS containing 10 FCS. After washing with buffer (1×PBS containing 0.005% tween), the plates were incubated for two hours at room temperature in the presence of anti-acetylated-α-tubulin antibody (Monoclonal Anti-acetylated-tubulin clone 6-11B-1, mouse ascites fluid, cat #T6793 Sigma, 100 μl diluted 1:1000 in 1×PBS containing 10% FCS) or with total anti-α-tubulin antibody (Monoclonal Anti alpha-tubulin produced in mouse, cat #T6074 Sigma). After washing, 100 μl per well of TMB substrate kit was added for 10 minutes at room temperature in the dark. The reaction was stopped by adding 50 μl of 2N H2SO4. The plates were read at Multiskan Spectrum spectrophotometer at a wavelength of 450 nm.
The degree of acetylation was calculated by dividing the absorbance obtained for acetylated α-tubulin by the absorbance of total α-tubulin.
as §3

[3] = test system: regulatory T cell (Treg, CD4+CD25+) suppression activity; assay: T CD4 lymphocyte proliferation mediated by mouse regulatory T cells suppression assay
Method: To evaluate the ability of the molecules under this patent to increase regulatory T cell (Treg, CD4^+CD25^+) suppression activity a T-cell (responder T cells, Teff) proliferation suppression assay was used. Treg cells at different concentrations were cultured with Teff cells (CD4^+CD25^−) in the presence of proliferative stimuli. T cells need of two stimuli to proliferate: the first given by the recognition of antigen associated with MHC by T cell receptor (TCR) and the second one derived from co-stimulatory molecules such as CD28. In the absence of a specific antigen, TCR activation can take place with an antibody recognizing one of the composing subunits, CD3ε. In this assay, anti-CD3ε monoclonal antibody and CD4 T cell depleted splenocytes were used as activator stimuli. Therefore, the ability to reduce Teff cells proliferation by Tregs in the presence or absence of HDAC6 inhibitors was assessed.
Treg and Teff cells were separated using the Treg isolation kit based on magnetic beads separation technique (Miltenyi Biotec) through an initial negative selection and a final positive selection process.
Single cell suspension was obtained from spleen of C57BL/6 mice using a 70 μm strainer.
Cell suspension was treated with ACK buffer to lyse red blood cells and then centrifuged for 5 minutes at 300×g. After centrifugation, the cells were resuspended in PBS (Phosphate Buffered Saline, Gibco) and counted. Subsequently, splenocytes were resuspended in a buffer consisting of PBS, 0.5% BSA and 2 mM EDTA.
To proceed with the first step of Treg separation, CD4 negative cells were indirectly magnetically labeled with a cocktail of biotin-conjugated antibodies against CD8a, CD11b, CD45R, CD49b, Ter-119 and Anti-Biotin MicroBeads CD4+ cells were thus obtained by negative selection as flow-through of a magnetic MACS column.
Cells bound to microbeads were eluted and conserved for their use as antigen presenting cells (APC) in the proliferation assay.
In the second step of Treg purification, pre-enriched CD4+ cells were labelled with an R-phycoerythrin (PE)-conjugated anti-CD25 antibody that preferentially binds to Treg cells and magnetic beads coupled with an anti PE antibody. The cell suspension was then loaded on a column. The Teff cells pass through the column without binding (negative selection), while beads-bound Treg cells adhere through the magnetic beads (positive selection). Treg cells were then eluted from the column by buffer flow using a plunger. Treg and Teff cell purification is summarized in FIG. 6. • CD4− cells from first positive selection as APC • Treg CD4+ CD25+ as suppressor cells • Teff CD4+ CD25− as responder/proliferating cells
CD4^− cells were treated with mitomycin C (50 μg/ml, Sigma) for 30 min at 37° C. to prevent their proliferation They were then resuspended at a concentration of 4.0×10^5/50 μl in complete medium (RPMI, FBS10%, penicillin/streptomycin 1×, 50 μM beta mercaptoethanol). Teffs were labeled with carboxy fluorescein succinimidyl ester (CFSE) at a concentration of 2 μM in PBS at 37° C., and after 10 minutes incubation, the reaction was blocked with a 10% FBS PBS solution. CFSE labelling allows covalent modification of Teff cell to analyse their proliferation by fluorescence dilution. The labelled Teffs were then centrifuged and resuspended at the final concentration of 5.0×10^4/50 μl in complete medium. Finally, the Tregs obtained by purification were diluted to the final concentration of 5.0×10^4/50 μl in complete medium. […]

Compound `Cn1c(Sc2c(F)cc(C(=O)NO)cc2F)nnc1-c1cccs1` [comp. 17, 3,5-difluoro-N-hydroxy-4-((4-methyl-5-(thiophen-2-yl)-4H-1,2,4-triazol-3-yl)thio)benzamide] has a fold induction at 0.111 µM [1] of 2, a fold induction at 0.333 µM [1] of 1 and a fold induction at 1 µM [1] of 2. For the same compound, the fold induction at 0.037 µM [2] was 3, the fold induction at 0.111 µM [2] was 8 and the fold induction at 0.333 µM [2] was 9. For the same compound, the fold induction at 1 µM [2] was 10, the “RS (relative T-reg suppression, AUC drug/AUC control)” value ([3]; concentration 0.5 μM) was 1.7 and the “RS (relative T-reg suppression, AUC drug/AUC control)” value ([3]; concentration 1 μM) was 1.9.

With `Cn1c(Sc2ccc(C(=O)NO)cc2)nnc1-c1cccs1` [comp. 10, N-hydroxy-4-((4-methyl-5-(thiophen-2-yl)-4H-1,2,4-triazol-3-yl)thio)benzamide] the fold induction at 0.111 µM [1] was 1, the fold induction at 0.333 µM [1] was 1 and the fold induction at 1 µM [1] was 2. For the same compound, the fold induction at 0.037 µM [2] was 3, the fold induction at 0.111 µM [2] was 7 and the fold induction at 0.333 µM [2] was 13. The fold induction at 1 µM [2] was 16, the “RS (relative T-reg suppression, AUC drug/AUC control)” value ([3]; concentration 0.5 μM) was 3.2 and the “RS (relative T-reg suppression, AUC drug/AUC control)” value ([3]; concentration 0.75 μM) was 7.4. For the same compound, the “RS (relative T-reg suppression, AUC drug/AUC control)” value ([3]; concentration 1 μM) was 5.2.

`Cc1cc(-c2nnc(Sc3c(F)cc(C(=O)NO)cc3F)n2C)nn1C` [comp. 100, 4-[[5-(1,5-dimethylpyrazol-3-yl)-4-methyl-1,2,4-triazol-3-yl]sulfanyl]-3,5-difluoro-benzenecarbohydroxamic acid] was tested, and the fold induction at 0.111 µM [1] was 1, the fold induction at 0.333 µM [1] was 3 and the fold induction at 1 µM [1] was 2. For the same compound, the fold induction at 0.037 µM [2] was 2, the fold induction at 0.111 µM [2] was 3 and the fold induction at 0.333 µM [2] was 9. For the same compound, the fold induction at 1 µM [2] was 14.
